Data reported in PubChem BioAssay AID2546 (National Center for Advancing Translational Sciences (NCATS), 2010).
The entries are a selection whose mix differs from that of the whole data set. Results filed as inconclusive are left out. Active and inactive are the calls of the source. The call rests on the fitted dose curve; in most records, active means well fitted inhibition curve with a large enough effect; inconclusive means small, poorly fitted or top-dose-only effect, or effect the other way; inactive means flat fitted curve, though single readings scatter.

Assay: VP16 counterscreen qHTS for inhibitors of ROR gamma transcriptional activity;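 further: Gal4-VP16 expression switched on by copper sulfate through the metallothionein promoter; nearly all actives have a fitted effect of over 50% in size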
Details: Drosophila S2 Gal4-VP16 UAS-luciferase, luminescence, 20 h; at 53.6 µM (top of the series)
On the % scale 0 is the no-effect control and ±100 the full control effect.

Row | SMILES | activity, negative = inhibition
1 | CN(CCCl)CCCl | inactive: -19.9%
2 | CCC(=O)N(c1ccccc1)C1CCN(CCc2ccccc2)CC1 | inactive: 2.2%
3 | O=[N+]([O-])C(Cl)(Cl)Cl | inactive: -10%
